In patent US12377104B1, “Methods for treating a fatty liver disease” (Madrigal Pharmaceuticals, Inc., priority 2024, dated 2025):

System: adults with biopsy-confirmed NASH
Test: MAESTRO-NASH: adverse events, serious adverse events, malignancies
Settings: 80 mg and 100 mg groups

Q: Which “patients who reported an adverse event” value does the source give for `CC(C)c1cc(Oc2c(Cl)cc(-n3nc(C#N)c(=O)[nH]c3=O)cc2Cl)n[nH]c1=O` [Resmetirom, 2-(3,5-dichloro-4-((5-isopropyl-6-oxo-1,6-dihydropyridazin-3-yl)oxy)phenyl)-3,5-dioxo-2,3,4,5-tetrahydro-1,2,4-triazine-6-carbonitrile] here?
A: 91.6 to 91.9%
